Measurements from paper PMC8333062, “Chemical tools for epichaperome-mediated interactome dysfunctions of the central nervous system” (Nature Communications, 2021).
Several values for one entry are separate records, joined by “and”; a condition that tells them apart may be missing. Equal entries are not always repeated.

Test system: tumor endothelial cells in GBM explants
Test: Active caspase-3 in CD105+ve cells of explants
Details: 1 µM, explants #30; listed as PU-H71

## CC(C)NCCCn1c(Sc2cc3c(cc2I)OCO3)nc2c(N)ncnc21 [Compound 1, reference compound]
  %Increase Active Caspase-3 (CD105+ve cells): 143% and 152% and 196%
